Compound activity (PubChem)
EWS-Fli inh = EWS/Fli transcriptional activity inhibition; inhibition, % at 12.6 µM; AID 651661; A673 NR0B1-luciferase reporter, viability-normalised; 350,000 compounds, 0.67% hits;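 active means mean inhibition of at least 50% after viability correction, with every replicate also passing that limit; inconclusive means mean reaches 50% but only one of two replicates passes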;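 further: firefly luciferase signal divided by Alamar Blue viability fluorescence both relative to DMSO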
CFTR F508del cor = correctors of CFTR F508del function in bronchial epithelial cells. CFBE cells, YFP halide quenching; stimulated with forskolin plus potentiator P3; % fluorescence drop versus neutral controls. activity (quench increase), % at 7.58 µM. 350,000 compounds, 0.36% hits. AID 720511;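 active means mean added fluorescence quench of at least 8% versus neutral control, with both replicates also reaching 8%; inconclusive means only one of the mean or replicate conditions met; inactive means mean below 8% and not both replicates reaching 8%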;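 further: cells transiently co-express mutant CFTR-F508del with the halide-sensitive YFP; corrector assay measuring rescue of mutant channel to the surface after 24 h compound exposure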
PglD DTNB = blocks C. jejuni PglD acetyltransferase activity; purified PglD enzyme, DTNB colorimetric CoA detection; inhibition, % at 12.5 µM; 360,000 compounds, 0.098% hits; AID 602405; in the data active means inhibition above about 16%, passing the limit was not always enough; inconclusive means no clear call, values can overlap the other calls
UUG fidelity = yeast start codon fidelity modulation | S. cerevisiae UUG-firefly luciferase reporter, luminescence/redox ratio | activity score, % at 18.7 µM | 0.13% of 350,000 active | AID 602363;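 active means replicate mean at a twofold rise or more, about +100% in these data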;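 further: firefly luciferase made from a UUG start codon reports start codon fidelity; reporter light over untreated wells divided by growth signal over untreated wells; some hits fall short of that in this replicate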
miR-122 sensor = blocks miR-122 activity in Huh7 sensor cells | Huh7 miR-122 Renilla luciferase sensor, 48 h; neutral wells = 0, positive control = 100 | activation (reporter increase), % at 12.5 µM | 340,000 compounds, 0.3% hits;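 active means mean replicate activation score at least 90 and every replicate individually at or above 90; inconclusive means only one of the two criteria met; inactive means neither criterion met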;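 further: higher luciferase means less miR-122 activity so hits act as miR-122 inhibitors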
LGR2 inh = Drosophila LGR2 receptor signaling inhibition. HEK293 LGR2, CRE-luciferase, bursicon-stimulated, 4 h. inhibition, % at 9.99 µM. 380,000 compounds, 0.35% hits. AID 720647;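 active means drop in luminescence signal, shown as inhibition above about 50% in the replicate tests, limit read from the data, passing the limit was not always enough; inconclusive means probably only some replicates passing the limit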;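 further: agonist challenge used bursicon conditioned medium at about half maximal strength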
PglD inh SP = PglD (C. jejuni) inhibition confirmation; 320 tested, under 10 active; Purified C. jejuni PglD, DTNB absorbance 412 nm; inhibition, % at 20 µM; shares compounds with PglD DTNB;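 active means mean inhibition across replicates of at least 20% with every single replicate also at 20% or more; inconclusive means mean inhibition at least 20% but some replicate falls below 20%; inactive means mean inhibition under 20% and not all replicates reach it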;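 further: initial rate of CoA release by acetyl transfer from AcCoA to the UDP-4-amino sugar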
Hits are given with their value; - = inactive; ? = inconclusive; . = not tested or not shown. Sampled rows, rich in hits. Any-hit rate of the full collection: about 1.3%.

SMILES | EWS-Fli inh | CFTR F508del cor | PglD DTNB | UUG fidelity | miR-122 sensor | LGR2 inh | PglD inh SP
COc1ccc(OC)c(NC(=O)N2CCCc3ccccc32)c1 | - | - | - | - | - | - | .
C=CCc1cc(/C=C/c2nc(O)c([N+](=O)[O-])c(=O)[nH]2)cc(OC)c1O | - | - | . | . | . | - | .
Cc1ccc(S(=O)(=O)N(C)C)cc1NC(=O)C1CCCCC1 | - | - | . | . | . | - | .
O=C(NCC1CCCO1)[C@@H]1CSC2c3ccccc3C(=O)N21 (some centres not stated) | . | . | 21.9 | - | - | - | -
CO[C@H]1CN(C)C(=O)c2ccc(NS(C)(=O)=O)cc2OC[C@H](C)N(Cc2ccccn2)C[C@H]1C | - | - | - | . | - | - | .
Cc1cc(C)cc(N(C(C)C(=O)N2CCCC2)S(C)(=O)=O)c1 (configuration not stated) | - | - | 74.6 | - | - | - | -
Cn1cnnc1SCC(C)(C)NS(=O)(=O)c1ccc(Cl)cc1 | - | - | 28.9 | - | - | - | ?
COc1cccc2cc(-c3nnc(-c4ccccc4)o3)c(=O)oc12 | - | . | 20.5 | - | - | - | -
O=C(NCc1ccc2c(c1)OCO2)c1nc(Cn2cc([N+](=O)[O-])cn2)no1 | - | - | - | - | - | - | .
O=C(NCc1nnc(SCC(=O)N2CCCc3ccccc32)o1)c1c(F)cccc1Cl | - | . | . | . | - | - | .
CC(=O)c1cccc(NC(=O)c2cccc3c(-c4cccnc4)coc23)c1 | - | - | - | - | - | - | .
CS(=O)(=O)Nc1cccc(NC(=O)c2cccc3c(-c4cccnc4)coc23)c1 | . | . | 35.0 | - | - | . | -
CC(=O)N[C@@H]1CC[C@H](CC(=O)NCc2ccc(Cl)cc2)O[C@@H]1CO | - | - | - | - | . | - | .
COc1cc2cc(CCCOC(=O)c3ccc(C(F)(F)F)cc3)oc(=O)c2cc1OC | - | - | 34.7 | - | - | - | -
COc1ccc2c(c1)C(=O)CCC2c1ccccc1 (configuration not stated) | - | - | - | - | . | - | .
CCC(=O)C1=C(O)C(c2cccc(Oc3ccccc3)c2)CCC1=O (configuration not stated) | - | - | 27.8 | - | - | - | -
c1ccc(Sc2nc(N3CCCCC3)nc(N3CCCCC3)n2)nc1 | . | . | - | - | - | - | .
O=C(NCCN1CCCCC1)Nc1ccc(F)cc1F | - | - | 24.2 | - | - | - | -
O=C1CN(C(=O)COC(=O)c2ccccc2Br)c2ccccc2N1 | - | - | - | - | - | - | .
CCN(CC)CC(=O)Nc1sc(C)cc1C(=O)c1ccc(C)cc1 | - | - | 22.1 | - | - | - | -
CCN(CC)CC(=O)Nc1sc(C)cc1C(=O)c1ccccc1 | - | - | - | - | - | - | .
Cc1onc(-c2ccccc2)c1C(=O)N1CCN(c2ccccn2)CC1 | - | - | - | - | - | - | .
CCOc1cc(/C=C(/C#N)C(=O)Nc2ccc(O)cc2)cc(Br)c1O | . | . | . | . | - | . | .
COc1ccccc1-c1nnc(SCc2ccccn2)n1C | . | . | 62.0 | - | - | . | -
COc1ccc(-c2nnc(SCc3ccccn3)n2C)cc1 | . | . | - | - | - | . | .
SMILES | EWS-Fli inh | CFTR F508del cor | PglD DTNB | UUG fidelity | miR-122 sensor | LGR2 inh | PglD inh SP
Cn1cnc(S(=O)(=O)N[C@H]2C=C[C@@H](CC(=O)NCC3CCCCC3)O[C@@H]2CO)c1 | - | - | - | - | . | - | .
O=C1C2C3c4ccccc4C(c4ccccc43)C2C(=O)N1Cc1ccco1 (configuration not stated) | . | . | 23.6 | - | - | . | -
C[C@@H]1CN([C@@H](C)CO)C(=O)c2cccc(NS(=O)(=O)c3ccccc3)c2O[C@@H]1CN(C)S(=O)(=O)c1ccc(Cl)cc1 | - | - | - | - | - | - | .
CC(=O)c1ccc(S(=O)(=O)N2Cc3ccccc3CC2C(=O)O)cc1 (configuration not stated) | - | - | 24.6 | - | - | - | -
O=C(O)[C@H]1Cc2ccccc2CN1S(=O)(=O)c1ccc(F)cc1 | - | - | - | - | - | - | .
CN(C(=O)c1ccc(NC(=O)Cc2cccc(NC(=O)C3CCN(C(=O)C4CC4)CC3)c2)cc1)C1CC1 | - | - | 25.4 | - | - | - | -
Cc1cc(-c2ccccc2)cc(C)n1 | - | - | - | - | . | - | .
Cc1cccc(C(=O)NCCNC(=O)c2ccco2)c1 | - | - | 20.2 | - | - | - | -
COc1cc(-n2c(=O)c3ccccc3n(CC(=O)OCc3ccccc3)c2=O)cc(OC)c1OC | - | - | - | - | - | - | .
COc1ccc([N+](=O)[O-])cc1NC(=O)CCN1CCOCC1 | - | - | 20.8 | - | - | - | -
COc1cc(/C=N\NC(=O)c2ccc(C)nc2)ccc1OC(=O)c1cccc(F)c1 | - | - | 28.6 | - | - | - | -
CC(=O)c1cccc(NC(=O)NCc2cccnc2)c1 | - | - | 22.0 | - | - | - | -
CC1=C(C(=O)N2CCCCCC2)CC(CC(=O)NCCCN(C)C)C(=O)N1Cc1ccc(C(C)(C)C)cc1 (configuration not stated) | - | - | . | . | . | - | .
Cc1cc(C)c(S(=O)(=O)N(C)CC(=O)NCc2ccccn2)c(C)c1 | - | - | . | . | . | - | .
CC(C)Oc1cc(F)ccc1-c1cc(C(=O)Nc2cccc(C(F)(F)F)c2)[nH]n1 | - | - | 23.6 | - | - | - | -
O=C(NCc1ccco1)C1CCCCC1 | - | - | - | - | - | - | .
O=C(NCc1ccco1)C1OCCc2ccccc21 (configuration not stated) | . | . | 24.9 | - | - | - | -
Cc1ccc(C(=O)COC(=O)CCC(=O)Nc2ccccc2Cl)cc1[N+](=O)[O-] | - | . | - | - | - | - | .
Cc1ccc(C(=O)COC(=O)CCCC(=O)Nc2cc(C(F)(F)F)ccc2Cl)cc1C | . | . | 24.3 | - | - | - | -
CCOC(=O)C1CCCN(C2CC(=O)N(c3ccccc3)C2=O)C1 (configuration not stated) | - | - | 27.2 | - | - | - | -
CCOC(=O)C1CCCN(C2CC(=O)N(c3ccc(N4C(=O)CC(N5CCCC(C(=O)OCC)C5)C4=O)cc3)C2=O)C1 (configuration not stated) | . | . | - | - | - | - | .
CCNC(=O)CC1C(=O)N(c2ccccc2)C(=O)N1CCc1ccc(OC)c(OC)c1 (configuration not stated) | . | . | . | . | - | - | .
CCNC(=O)CC1C(=O)N(c2ccccc2)C(=O)N1Cc1ccc(OC)cc1 (configuration not stated) | . | . | 33.1 | - | - | . | -
COc1ccccc1NC(=O)N(CCN(C)C)Cc1cc2cc(C)ccc2[nH]c1=O | . | . | - | - | - | . | .
COC(=O)c1cc(S(=O)(=O)Nc2c(C)cccc2C)cn1C | - | - | - | - | - | - | .
Cc1cc(=O)[nH]c(SCC(=O)Nc2ccc(Br)cc2)c1C#N | . | . | 21.1 | - | - | . | -
